# Apparent affinities of Ab-14 variants for a coronavirus HR2 peptide

All variants were tested on one target, the spike HR2 peptide PDVDLGDISGINAS (SARS-CoV-2).

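The starting antibody came from a phage panning campaign against this peptide. In library AAYL50, one, two or three CDR residues were substituted; doubles and triples were drawn at random. The assay is AlphaSeq: two haploid yeast populations carry antibody and antigen on their surface. Binding brings cells together so that they mate, and sequencing counts the barcode pairs among the diploids. The ratio of observed to expected reads was calibrated, replicate by replicate, on BCL2-family standards whose Kd was known from biolayer interferometry. The assay was run in three technical replicates.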

Parent scFv Ab-14: VH joined to VL by the linker GGGGSGGGGSGGGGS. Changes lie in the light chain CDRs alone.
VH: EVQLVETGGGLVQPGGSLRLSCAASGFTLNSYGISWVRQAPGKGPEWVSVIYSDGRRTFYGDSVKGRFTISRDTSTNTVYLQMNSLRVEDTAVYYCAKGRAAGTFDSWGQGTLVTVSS
VL: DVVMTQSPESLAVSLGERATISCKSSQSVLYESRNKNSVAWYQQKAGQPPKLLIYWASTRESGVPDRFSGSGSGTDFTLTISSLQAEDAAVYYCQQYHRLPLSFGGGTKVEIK

Positions count from residue 1 of the parent VL; S38A puts A in place of S. The read-out is the apparent dissociation constant on a log10 scale (nM): the lower, the stronger. A mean of the replicates is given; it leaves out those without a signal. An entry "nd" has no value in the source: the pair was not observed among the diploids in that replicate. This suggests poor binding but is not conclusive.

| changes | log10 Kd (nM) by replicate | mean, log10 nM | signal with controls |
|---|---|---|---|
| S38A Y97A S103T | 2.46 / 2.14 / 3.23 | 2.61 | 2 of 9 (3.51) |
| S33L K36I W56F | 1.19 / 1.47 / 2.07 | 1.58 | 0 of 9 |
| W56H S103T | 0.17 / 0.41 / 0.25 | 0.27 | 0 of 9 |
| S62F Q96A L102Q | 1.09 / 1.28 / 1.54 | 1.30 | 1 of 9 (5.10) |
| K36C H98I S103M | 1.44 / 1.51 / 1.51 | 1.48 | 3 of 9 (4.24) |
| S25H Y31F S38W | nd / 3.67 / nd | 3.67 | 0 of 9 |
| Q27G N35R R60A | nd / nd / 4.19 | 4.19 | 2 of 9 (4.57) |
| L30V N35P T59E | nd / nd / nd | nd | 0 of 9 |
| Q27T A57F L102A | nd / nd / nd | nd | 1 of 9 (4.74) |
| Q96R L102D | 1.50 / 1.42 / 1.46 | 1.46 | 8 of 9 (3.93) |
| N35H Q96C R99E | 1.21 / 1.06 / 1.09 | 1.12 | 0 of 9 |
| S38E V39Q R99S | nd / 3.64 / 3.38 | 3.51 | 2 of 9 (3.64) |
| Q27T W56C Q95S | nd / nd / nd | nd | 0 of 9 |
| S33C R99S P101I | nd / nd / nd | nd | 2 of 9 (4.10) |
| S26I W56E T59C | -0.08 / 0.20 / 0.00 | 0.04 | 3 of 9 (5.09) |
| S26T E32M W56L | nd / nd / nd | nd | 1 of 9 (3.28) |
| K24Q N35G R99N | 2.35 / nd / 2.50 | 2.43 | 0 of 9 |
| N35I W56N | 1.15 / 0.98 / 0.98 | 1.04 | 2 of 9 (4.60) |
| Q27Y L30K R99N | 2.41 / 1.37 / 2.16 | 1.98 | 0 of 9 |
| V39K E61M L100N | nd / nd / nd | nd | 3 of 9 (3.82) |
| K24R E61S Q96C | nd / 3.52 / nd | 3.52 | 0 of 9 |
| S25Y K36V T59P | nd / nd / nd | nd | 0 of 9 |
| V39D T59W L100M | nd / nd / nd | nd | 2 of 9 (4.52) |
| L30H E61F Q96M | 2.72 / 1.99 / 3.40 | 2.70 | 2 of 9 (4.25) |
| S28L W56A S58K | 0.07 / 0.40 / 0.25 | 0.24 | 3 of 9 (5.49) |
| R99Q P101W | nd / nd / nd | nd | 2 of 9 (4.18) |
| S25F S28D L102W | nd / 3.84 / nd | 3.84 | 1 of 9 (3.68) |
| E61P S62E L100P | nd / nd / nd | nd | 2 of 9 (3.25) |
| W56Y Q96D P101I | nd / nd / nd | nd | 0 of 9 |
| A40P T59L E61C | nd / nd / nd | nd | 0 of 9 |
| H98C | 1.39 / 1.31 / 1.52 | 1.41 | 1 of 9 (3.98) |
| S25H A57Q P101T | nd / nd / 4.83 | 4.83 | 2 of 9 (4.17) |
| L30G N35D Q95M | 6.22 / 4.69 / 4.59 | 5.17 | 6 of 9 (4.09) |
| S33V Q96E | nd / nd / nd | nd | 1 of 9 (2.90) |
| S26V K36M S62D | 0.62 / 0.90 / 0.94 | 0.82 | 0 of 9 |
| K24Y S28R S33P | 2.47 / 1.60 / 2.42 | 2.16 | 2 of 9 (3.30) |
| S38W A40L S103V | 4.37 / nd / 5.85 | 5.11 | 0 of 9 |
| S28V | 1.86 / 1.71 / 1.95 | 1.84 | 6 of 9 (4.23) |
| K24H T59K S103H | 1.70 / 1.86 / 1.87 | 1.81 | 6 of 9 (4.44) |
| K36G A57Y Q95I | nd / 4.75 / 4.38 | 4.56 | 1 of 9 (2.44) |
| E32R Y97F S103E | 3.55 / 2.21 / 5.35 | 3.70 | 3 of 9 (3.81) |
| A40R S58Q | nd / nd / nd | nd | 0 of 9 |
| Q27F N35W | 2.48 / 2.59 / 2.59 | 2.55 | 1 of 9 (3.79) |
| T59N Y97W L100Q | nd / nd / nd | nd | 0 of 9 |
| Y31F S62E L102K | 1.94 / 1.81 / 2.04 | 1.93 | 2 of 9 (4.82) |
| K24H S28D T59R | 1.14 / 1.27 / 1.23 | 1.21 | 3 of 9 (4.52) |
| Y31K W56C | 3.62 / nd / 3.27 | 3.45 | 1 of 9 (5.17) |
| N37P V39E H98K | nd / nd / nd | nd | 2 of 9 (4.19) |
| W56R R99Q L100W | 1.58 / 1.41 / 1.62 | 1.54 | 3 of 9 (3.83) |
| K36T A40G E61W | 1.88 / 1.76 / 1.64 | 1.76 | 1 of 9 (4.08) |

Extract of 5 entries:

| changes | log10 Kd (nM) by replicate | mean, log10 nM | signal with controls |
|---|---|---|---|
| V39D T59W L100M | nd / nd / nd | nd | 2 of 9 (4.52) |
| Q96R L102D | 1.50 / 1.42 / 1.46 | 1.46 | 8 of 9 (3.93) |
| N35H Q96C R99E | 1.21 / 1.06 / 1.09 | 1.12 | 0 of 9 |
| S38A Y97A S103T | 2.46 / 2.14 / 3.23 | 2.61 | 2 of 9 (3.51) |
| W56Y Q96D P101I | nd / nd / nd | nd | 0 of 9 |

Background: pairings of library AAYL50 with three empty control strains gave a value in 18% of cases (median 4.19, 5th percentile 2.99). Values in that range, when seen in few replicates, are hard to tell from nonspecific mating. For each scFv, signals with the empty controls are counted beside the result, with their mean in brackets. For reference, the parent read 0.65 as the reference entry and 1.68 as a member of this library.

Source: Engelhart et al. 2022 (doi:10.1038/s41597-022-01779-4), MIT Lincoln Laboratory and A-Alpha Bio; data file from the FLAb repository.